{"sequences": {"note": "Chains of the proteins cited; added tags and fusions are not shown.", "UniProt P35372, whole entry": "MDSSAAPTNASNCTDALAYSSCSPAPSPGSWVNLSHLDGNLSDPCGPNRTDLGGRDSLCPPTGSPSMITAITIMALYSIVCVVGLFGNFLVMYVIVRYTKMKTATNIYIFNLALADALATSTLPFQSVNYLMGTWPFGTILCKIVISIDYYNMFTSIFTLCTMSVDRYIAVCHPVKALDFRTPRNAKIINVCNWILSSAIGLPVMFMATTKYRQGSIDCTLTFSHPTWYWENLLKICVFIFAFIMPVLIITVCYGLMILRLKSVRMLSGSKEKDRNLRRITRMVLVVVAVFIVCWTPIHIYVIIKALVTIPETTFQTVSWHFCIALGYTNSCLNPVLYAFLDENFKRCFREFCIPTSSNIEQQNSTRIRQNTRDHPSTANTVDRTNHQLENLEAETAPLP"}, "source": "patent US20210393618A1", "about": "“BUPRENORPHINE TO TREAT RESPIRATORY DEPRESSION” (published 2021)", "origin": "cited, not measured here", "target": "μ-opioid receptor (Homo sapiens, UniProt P35372)", "data": [{"smiles": "CO[C@]12CC[C@@]3(C[C@@H]1[C@](C)(O)C(C)(C)C)[C@H]1Cc4ccc(O)c5c4[C@@]3(CCN1)[C@H]2O5", "values": [{"measurement": "intrinsic activity as agonist", "value": "weak intrinsic activity"}]}]}
